Assay results from ChEMBL document CHEMBL1177813, “Design and synthesis of trivalent ligands targeting opioid, cholecystokinin, and melanocortin receptors for the treatment of pain” (Bioorg Med Chem Lett, 2010).

Sequences of proteins named here, by UniProt entry; tags and fusion partners are left off.
UniProt P33535, whole entry: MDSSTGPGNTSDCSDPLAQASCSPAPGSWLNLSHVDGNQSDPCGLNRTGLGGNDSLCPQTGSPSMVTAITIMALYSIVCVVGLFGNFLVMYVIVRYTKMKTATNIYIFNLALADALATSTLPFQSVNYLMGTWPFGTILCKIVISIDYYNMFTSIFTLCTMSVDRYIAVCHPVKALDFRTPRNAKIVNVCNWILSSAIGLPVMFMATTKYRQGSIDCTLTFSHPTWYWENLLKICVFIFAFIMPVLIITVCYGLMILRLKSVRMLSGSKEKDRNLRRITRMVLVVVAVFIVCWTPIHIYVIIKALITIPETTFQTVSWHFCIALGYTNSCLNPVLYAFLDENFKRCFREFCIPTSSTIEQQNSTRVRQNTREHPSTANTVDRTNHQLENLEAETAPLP
UniProt P32300, whole entry: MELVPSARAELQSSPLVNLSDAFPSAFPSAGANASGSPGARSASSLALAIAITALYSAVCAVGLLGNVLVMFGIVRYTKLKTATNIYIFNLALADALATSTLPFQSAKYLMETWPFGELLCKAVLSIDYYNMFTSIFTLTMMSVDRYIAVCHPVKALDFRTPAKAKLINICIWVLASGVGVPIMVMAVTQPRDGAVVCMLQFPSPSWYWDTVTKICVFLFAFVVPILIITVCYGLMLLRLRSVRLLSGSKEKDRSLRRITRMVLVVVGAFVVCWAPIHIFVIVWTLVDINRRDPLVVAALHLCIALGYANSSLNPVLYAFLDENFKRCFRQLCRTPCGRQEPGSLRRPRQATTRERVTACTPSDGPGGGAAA
UniProt P41143, whole entry: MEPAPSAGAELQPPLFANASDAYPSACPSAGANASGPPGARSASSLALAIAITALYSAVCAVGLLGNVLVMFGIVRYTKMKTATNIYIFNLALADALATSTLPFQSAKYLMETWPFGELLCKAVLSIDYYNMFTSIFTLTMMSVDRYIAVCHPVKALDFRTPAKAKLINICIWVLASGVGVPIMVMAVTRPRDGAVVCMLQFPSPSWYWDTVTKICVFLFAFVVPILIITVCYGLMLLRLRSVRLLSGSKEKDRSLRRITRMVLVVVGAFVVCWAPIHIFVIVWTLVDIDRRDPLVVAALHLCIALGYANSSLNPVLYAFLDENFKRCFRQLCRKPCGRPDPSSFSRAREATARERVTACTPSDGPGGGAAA

Tests used:
Mu-type opioid receptor = Mu-type opioid receptor (Rattus norvegicus, UniProt P33535); assay: Displacement of [3H]DAMGO from rat mu opioid receptor expressed in mouse HN9.10 cells; type: cell-based
[1] = target: Delta-type opioid receptor (Mus musculus, UniProt P32300); assay: Agonist activity at delta opioid receptor in mouse vas deferens assessed as inhibition of electrically-stimulated muscle contraction; type: functional, tissue-based
[2] = target: Delta-type opioid receptor (Homo sapiens, UniProt P41143); assay: Displacement of [3H]DPDPE from human delta opioid receptor expressed in mouse HN9.10 cells; type: cell-based

With `C[C@@H](NC(=O)[C@@H](N)Cc1ccc(O)cc1)C(=O)NCC(=O)N[C@@H](Cc1ccccc1)C(=O)NCCCC[C@H](NC(=O)[C@H](Cc1c[nH]c2ccccc12)NC(=O)[C@H](CCCN=C(N)N)NC(=O)[C@@H](Cc1ccc(Cl)cc1)NC(=O)[C@@H](N)Cc1cnc[nH]1)C(=O)N[C@@H](CC(=O)O)C(=O)N[C@@H](Cc1ccccc1)C(N)=O` the IC50 (Mu-type opioid receptor) was 31.6 nM, the Ki (Mu-type opioid receptor) was 7.4 nM and the IC50 [1] was 240 nM. For the same compound, the IC50 [2] was 7.94 nM and the Ki [2] was 3.5 nM.
